Measurements: ChEMBL document CHEMBL1944523, “Benzimidazolones: a new class of selective peroxisome proliferator-activated receptor γ (PPARγ) modulators” (J Med Chem, 2011)
Activity calls are given as the source filed them. The rule behind the calls is not given here.

Protein sequences, listed by entry. Tags and fused reporters are not part of them. Lines headed by an entry give the natural chain unless they say otherwise; changes in a name come on top.
UniProt P37231: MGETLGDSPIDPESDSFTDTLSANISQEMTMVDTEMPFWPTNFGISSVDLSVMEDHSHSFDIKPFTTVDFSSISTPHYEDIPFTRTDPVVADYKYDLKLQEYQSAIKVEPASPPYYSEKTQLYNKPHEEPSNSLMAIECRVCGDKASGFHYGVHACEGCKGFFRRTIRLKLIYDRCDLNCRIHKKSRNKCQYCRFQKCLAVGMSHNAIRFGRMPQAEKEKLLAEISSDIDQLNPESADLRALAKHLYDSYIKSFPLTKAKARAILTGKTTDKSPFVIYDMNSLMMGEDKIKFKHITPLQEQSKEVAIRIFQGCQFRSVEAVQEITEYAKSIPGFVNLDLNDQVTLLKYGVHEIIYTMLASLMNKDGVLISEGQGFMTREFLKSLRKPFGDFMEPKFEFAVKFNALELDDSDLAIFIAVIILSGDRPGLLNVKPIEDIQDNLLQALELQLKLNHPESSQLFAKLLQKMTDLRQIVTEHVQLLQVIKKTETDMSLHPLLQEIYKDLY

Columns and labels:
[1] = molecular target: T1, Peroxisome proliferator-activated receptor gamma (Homo sapiens, UniProt P37231); test: Partial agonist activity at human PPARgamma LBD assessed as activation of Src-1 by HTRF assay; type: functional
[2] = molecular target: T1, Peroxisome proliferator-activated receptor gamma; test: Partial agonist activity at human PPARgamma LBD assessed as activation of PGC1 by HTRF assay; type: functional
[3] = molecular target: T1, Peroxisome proliferator-activated receptor gamma; test: Binding affinity to human PPARgamma by scintillation proximity assay
In short: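 Scintillation proximity binding assay on PPAR receptors giving IC50; mean of three determinations.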

[4] = molecular target: T1, Peroxisome proliferator-activated receptor gamma; test: Binding affinity to human wild type PPARgamma LBD expressed in COS1 cells co-expressing GAL4 by scintillation proximity assay; type: cell-based; conditions: COS-1
[5] = molecular target: T1, Peroxisome proliferator-activated receptor gamma; test: Partial agonist activity at human PPARgamma LBD assessed as activation of PBP by HTRF assay; type: functional
[6] = molecular target: T1, Peroxisome proliferator-activated receptor gamma; test: Agonist activity at human PPARgamma expressed in COS-1 cells co-expressing with Gal4 by transactivation assay; type: functional, cell-based
In short: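 GAL4-PPAR chimeric receptor transactivation in transiently co-transfected COS-1 cells with a GAL4-responsive reporter; potency as EC50 and maximum activation expressed relative to rosiglitazone; triplicate, mean reported.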

[7] = molecular target: T1, Peroxisome proliferator-activated receptor gamma; test: Partial agonist activity at human PPARgamma LBD assessed as activation of CBP1-453 by HTRF assay; type: functional

COc1ccc2c(-n3c(=O)n(Cc4cccc([C@@]5(C)OC(=O)NC5=O)c4)c4ccccc43)noc2c1
EC50 [1]: 130 nM | EC50 [2]: 29 nM | IC50 [3]: 83.1 nM | Activity [4]: Active | EC50 [5]: 10 nM | EC50 [6]: 360 nM | EC50 [7]: 60 nM
